Read-outs that look alike come from different tables or passages of the source.
What was measured:
RAW 264.7 cells [1] = assay type: cell-based, mouse; conditions: RAW 264.7, H3N2 virus, 4 hours; 0.5 μM CPT, 100 nM TPT
RAW 264.7 cells [2] = system: RAW 264.7 cells

CC[C@@]1(O)C(=O)OCc2c1cc1n(c2=O)Cc2cc3ccccc3nc2-1 [CPT, Camptothecin]
PAMP-induced gene expression (RAW 264.7 cells [1]): inhibitory effect
DNA damage (H2AX staining) at the concentration used (RAW 264.7 cells [2]; RAW 264.7, 0.5 μM CPT, 100 nM TPT, 6 hours p.i.): neither TPT- nor CPT-treated cells displayed DNA damage
concentration at which DNA damage was detectable, relative to the concentration selected (RAW 264.7 cells [2]; RAW 264.7, selected 0.5 μM CPT, 100 nM TPT): 20 times higher

CC[C@@]1(O)C(=O)OCc2c1cc1n(c2=O)Cc2cc3c(CN(C)C)c(O)ccc3nc2-1 [TPT, Topotecan]
PAMP-induced gene expression (RAW 264.7 cells [1]): inhibitory effect
concentration at which DNA damage was detectable, relative to the concentration selected (RAW 264.7 cells [2]; mouse): 100 times higher

— patent US11173154B2 (priority 2015, dated 2021)
